Test results published in article PMC6156383 (Frontiers in Psychiatry, 2018).

By UniProt entry, the sequences of proteins in these tests, tags left out. Where a name states a change or a piece, a line headed by the entry shows the natural chain unless it says otherwise.
UniProt P41146: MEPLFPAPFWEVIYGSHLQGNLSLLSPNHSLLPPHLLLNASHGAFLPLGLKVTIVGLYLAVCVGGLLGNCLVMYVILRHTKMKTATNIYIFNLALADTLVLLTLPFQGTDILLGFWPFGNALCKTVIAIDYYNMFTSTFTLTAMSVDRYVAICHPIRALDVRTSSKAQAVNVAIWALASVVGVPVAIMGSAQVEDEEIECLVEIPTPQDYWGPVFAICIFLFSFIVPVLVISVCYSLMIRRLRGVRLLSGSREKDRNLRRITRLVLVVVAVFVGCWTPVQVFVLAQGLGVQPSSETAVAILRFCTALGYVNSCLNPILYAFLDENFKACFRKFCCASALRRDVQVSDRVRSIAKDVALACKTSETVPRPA

Target: T1, NOP receptor (Homo sapiens, UniProt P41146)
T1 construct: expressed in transfected cells
Experiment: [35S]GTPγS binding stimulation (agonist), CHO membranes
Format: biochemical
Settings: [35S]GTPγS stimulation relative to standard agonist N/OFQ

nociceptin/orphanin FQ [reference compound]
NOP % stim: 100%
